# Patent publication US20040150788A1, “Antimicrobial lenses, processes to prepare them and methods of their use” (priority 2002, published 2004)
# Assays:
# [1] = CRC Handbook of Chemistry and Physics, 74th edition (Table 4); cited from earlier work
# [2] = Solubility-product constant (Ksp) and molar solubility of metal salts in pure water at 25° C.; settings: derived from Ksp (Table 4)
Substance,Ksp In pure H2O at 25° C. [1],Molar Solubility [2] [µM]
Silver nitrate,51.6,
Silver oxide,7.06 × 10^−13,112
